Laboratory results from PubChem BioAssay AID1662 (Broad Institute, 2009).
The list shows a part of the results, in another mix than the full data. Some tests of the compounds listed are not included; inactive here does not mean inactive elsewhere. Activity calls are given as the source filed them.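 The calls were made as follows: active = mean replicate score, as percent of positive control median, at least 50; inconclusive = mean below 50 but one replicate at or above 50; inactive = mean and every replicate below 50.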

Assay: S. pyogenes SKKanGAS growth inhibitors in kanamycin, primary screen, streptokinase expression inhibitor project, SKKanGAS strain, BacTiter-Glo luminescence (AID 1662);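 also: strain carries kanamycin resistance gene driven by streptokinase promoter and grows in 40 µg/ml kanamycin; loss of luminescence reflects streptokinase promoter inhibition or plain growth inhibition; 0% = median of DMSO wells and 100% = positive control at its reference dose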
Settings: 6 h, at 7.5 µM, stronger effect = higher value
For O=C(NCC1(N2CCCCC2)CCCCC1)c1cccc(Cl)c1, the inhibition was inactive: 1.85%. With COc1cccc(C(=O)NCC2(N3CCCCC3)CCCCC2)c1 the inhibition was inactive: -0.865%. In the case of COc1ccc(Cl)cc1C(=O)NCC1(N(C)C)CCCCC1, the inhibition is reported as inactive: 3.94%. In the case of COc1cc(C(=O)NCC2(N(C)C)CCCCC2)c([N+](=O)[O-])cc1OC, the inhibition is reported as inactive: -1.37%. With CN(C)C1(CNC(=O)c2ccc(Br)cc2)CCCCC1 the inhibition was inactive: -1.85%. For CN(C)c1cccc(C(=O)NCC2(N(C)C)CCCCC2)c1, the inhibition was inactive: -5.99%. With CC(C)Oc1ccc(C(=O)NCC2(N(C)C)CCCCC2)cc1 the inhibition was inactive: -0.52%. With COc1ccc(Br)c(C(=O)NCC2(N3CCCCC3)CCCCC2)c1 the inhibition was inactive: -9.82%. For O=C(OC1CN2CCC1CC2)C(CO)(c1ccccc1)c1ccccc1 (centres undefined), the inhibition was inactive: -9.98%. In the case of Cc1ccc(C(=O)NCC2(N3CCCCC3)CCCCC2)cc1, the inhibition is reported as inactive: 1.05%. For CC(C)N1C(=O)CC2(CCN(CCOC(=O)C(O)(c3ccccc3)c3ccccc3)CC2)C1=O, the inhibition was inactive: -0.125%. For CCN(CC)CC(C)C(C)OC(=O)C(O)(c1ccccc1)c1ccccc1 (centres undefined), the inhibition was inactive: 0.796%. For COc1cc(SC)ccc1C(=O)NCC1(N(C)C)CCCCC1, the inhibition was inactive: -4.94%. In the case of CN1[C@@H]2CC[C@H]1CC(OC(=O)C(O)(c1ccccc1)c1ccccc1)C2 (some centres undefined), the inhibition is reported as inactive: -3.99%. For O=C(NCC1(N2CCCCC2)CCCCC1)c1cc([N+](=O)[O-])ccc1Cl, the inhibition was inactive: 3.29%. With CCN1CCCC(OC(=O)C2(O)c3ccccc3C=Cc3ccccc32)C1 (centres undefined) the inhibition was inactive: -10.5%. For Cc1cc(C(=O)NCC2(N3CCCCC3)CCCCC2)ccc1[N+](=O)[O-], the inhibition was inactive: -0.341%. For O=C(NCC1(N2CCCCC2)CCCCC1)c1cccc(Br)c1, the inhibition was inactive: -2.57%. For COc1ccc(C(=O)NCC2(N(C)C)CCCCC2)cc1, the inhibition was inactive: 0.981%. With C=CCN1CCN(CCOC(=O)C(O)(c2ccccc2)c2ccccc2)CC1 the inhibition was inactive: -2.37%. For O=C(NCC1(N2CCCCC2)CCCCC1)c1cc(F)c(F)cc1Cl, the inhibition was inactive: 1.43%. In the case of Cc1ccccc1C(=O)NCC1(N2CCCCC2)CCCCC1, the inhibition is reported as inactive: -2.36%. With CN(C)c1ccc(C(=O)NCC2(N(C)C)CCCCC2)cc1 the inhibition was inactive: -2.13%. For CN(C)C1CCCC1OC(=O)C(O)(c1ccccc1)c1ccccc1 (centres undefined), the inhibition was inactive: 4.85%.
